{"source": "patent US12116355B2", "about": "“Deuterated 1-piperazino-3-phenyl indanes for treatment of schizophrenia” (H. Lundbeck A/S, priority 2011, dated 2024)", "assay": "Solubility of salts of Compound (IV)", "assay_type": "physicochemical", "data": [{"substance": "Dihydrogen phosphate", "values": [{"measurement": "Solubility", "result": 1400, "unit": "µg/mL"}, {"measurement": "pH of solubility solution", "result": 4.67}]}]}
